Source: patent US10053675B2, “Hydroxyphenylpyruvate dioxygenase polypeptides and methods of use” (SYNGENTA PARTICIPATIONS AG, priority 2009, dated 2018)

By UniProt entry, the sequences of proteins in these tests, tags left out. Where a name states a change or a piece, a line headed by the entry shows the natural chain unless it says otherwise.
UniProt A0ACD5V6K6, entry or part of it DEL109-109: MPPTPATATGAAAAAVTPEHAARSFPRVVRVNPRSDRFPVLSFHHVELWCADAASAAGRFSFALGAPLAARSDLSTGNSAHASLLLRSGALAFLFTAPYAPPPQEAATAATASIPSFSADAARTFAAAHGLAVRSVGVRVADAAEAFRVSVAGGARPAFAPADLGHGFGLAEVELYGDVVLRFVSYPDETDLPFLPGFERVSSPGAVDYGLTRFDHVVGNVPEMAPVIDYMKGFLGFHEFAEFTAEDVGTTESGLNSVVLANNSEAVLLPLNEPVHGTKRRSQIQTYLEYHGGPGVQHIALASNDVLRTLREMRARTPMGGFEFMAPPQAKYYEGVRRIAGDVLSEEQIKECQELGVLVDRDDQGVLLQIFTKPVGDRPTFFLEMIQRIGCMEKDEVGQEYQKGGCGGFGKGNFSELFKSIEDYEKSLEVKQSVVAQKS

Tests used:
[1] = biological target: T1, Avena-derived HPPD SEQ ID NO: 1 (Avena sativa, UniProt A0ACD5V6K6, DEL109-109); assay: On rate (kon, k2) of enzyme:inhibitor complex formation; assay type: binding; conditions: 25° C.; direct radiochemical method
[2] = biological target: T1, Avena-derived HPPD SEQ ID NO: 1; assay: biochemical; assay type: binding
Experimental: On rates (governed by an association rate constant, kon) for the formation of the enzyme:inhibitor complexes, EI and off rates (governed by a dissociation rate constant, koff) were determined by methods known in the art and essentially as described in Hawkes et al. (2001) Proc. Bright. Crop. Prot. Conf. Weeds, 2:563-568 and in PCT Publication No. WO 02/46387).
Off rates (k1 in the scheme below) were derived from exchange rate studies where either the test inhibitor, I, or its exchange partner, J were radiolabelled and the data fit according to the scheme below. As noted in Hawkes et al. (2001) Proc. Bright. Crop. Prot. Conf.
After 30 minutes the exchange reaction was initiated with addition of 100 μl 1 mM ‘cold’ structure A with thorough mixing, and, immediately, 150 μl were withdrawn and loaded onto a NAP5 column, the protein exchanged into 50 mM BisTrisPropane buffer at pH 7.0 containing 0.1M KCl by rapid (<2 min) chromatography down a NAP5 G25 Sephadex® column (GE Healthcare Ltd, Buckinghamshire UK) and the amount of ^14C bound to protein measured by Optiphase scintillant using a Tri-Carb® 2900TR scintillation counter (Perkin Elmer, Wellesley, Mass.). Further aliquots were removed and measured in the same way at various times over minutes or hours as required in order to determine the exchange kinetics. […]

## CS(=O)(=O)c1ccc(C(=O)C2C(=O)CCCC2=O)c([N+](=O)[O-])c1 [Compound B, mesotrione]
[1]
  On rate k2, individual experiments: 62000 M⁻¹ s⁻¹
[2]; ice temperature
  Off rate k1 at ice temperature, individual experiments: 1.2e-05 s⁻¹
[2]; read-out: Off rate k1 at ice temperature, individual experiments, ice temperature
  koff: 1.5e-05 s⁻¹
